Sequences of proteins named here, by UniProt entry; tags and fusion partners are left off. Residues count along the entry.
UniProt P00747, 97-580 partner limits assumed: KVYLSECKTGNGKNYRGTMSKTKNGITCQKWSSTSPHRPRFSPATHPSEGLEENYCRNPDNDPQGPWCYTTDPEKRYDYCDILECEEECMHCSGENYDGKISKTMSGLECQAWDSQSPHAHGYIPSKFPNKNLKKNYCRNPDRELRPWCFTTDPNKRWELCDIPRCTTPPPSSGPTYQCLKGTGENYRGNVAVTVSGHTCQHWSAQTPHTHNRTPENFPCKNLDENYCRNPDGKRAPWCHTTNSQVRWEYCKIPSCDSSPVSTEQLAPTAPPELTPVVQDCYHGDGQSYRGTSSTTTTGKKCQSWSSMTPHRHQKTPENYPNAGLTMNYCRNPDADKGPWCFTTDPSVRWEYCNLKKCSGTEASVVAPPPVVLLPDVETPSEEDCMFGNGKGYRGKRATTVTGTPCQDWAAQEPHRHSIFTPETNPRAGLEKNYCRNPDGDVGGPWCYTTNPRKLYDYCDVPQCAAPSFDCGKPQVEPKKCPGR
UniProt P00747, 581-810 limits assumed: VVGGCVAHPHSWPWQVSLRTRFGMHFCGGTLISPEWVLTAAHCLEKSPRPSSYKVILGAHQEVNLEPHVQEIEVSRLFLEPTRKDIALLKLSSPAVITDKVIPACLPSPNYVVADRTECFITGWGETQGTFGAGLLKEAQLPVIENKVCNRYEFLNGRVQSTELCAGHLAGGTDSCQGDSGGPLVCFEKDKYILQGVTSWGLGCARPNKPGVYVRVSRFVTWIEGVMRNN

According to US6420438B1, “1-amino-7-isoquinoline derivatives as serine protease inhibitors” (Tularik Limited, priority 1998, dated 2002):

Biological target: plasmin (Homo sapiens, UniProt P00747)
Assay: Enzyme inhibition assay, chromogenic substrate pefachrome-PL
Assay type: biochemical
Conditions: room temperature, 0.1M phosphate buffer, pH7.4

pKi: 6.70
SMILES: N=C(N)c1ccccc1 [benzamidine]

pKi: −log10 of the molar value.
